The chains behind the UniProt entries cited, without tags or fusion partners.
UniProt Q04206, whole entry: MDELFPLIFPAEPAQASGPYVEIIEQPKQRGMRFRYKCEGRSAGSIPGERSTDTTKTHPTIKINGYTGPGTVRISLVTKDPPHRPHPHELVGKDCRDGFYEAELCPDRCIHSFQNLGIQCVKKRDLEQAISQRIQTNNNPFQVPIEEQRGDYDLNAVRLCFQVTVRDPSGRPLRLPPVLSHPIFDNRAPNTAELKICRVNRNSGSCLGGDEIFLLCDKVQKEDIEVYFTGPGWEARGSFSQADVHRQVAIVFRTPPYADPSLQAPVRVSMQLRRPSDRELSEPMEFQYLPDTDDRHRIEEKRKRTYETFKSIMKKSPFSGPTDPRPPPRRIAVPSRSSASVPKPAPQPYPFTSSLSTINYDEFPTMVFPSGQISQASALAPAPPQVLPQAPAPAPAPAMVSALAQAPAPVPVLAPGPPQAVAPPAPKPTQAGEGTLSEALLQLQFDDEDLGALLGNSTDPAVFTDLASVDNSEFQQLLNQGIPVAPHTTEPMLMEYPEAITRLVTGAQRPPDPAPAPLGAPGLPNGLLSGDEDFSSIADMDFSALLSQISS

In ChEMBL document CHEMBL4339224, “Identification of a Strigoterpenoid with Dual Nrf2 and Nf-κB Modulatory Activity” (ACS Med Chem Lett, 2019):

Experiments:
Type in all cases: cell-based
[1] = species: Homo sapiens; assay: Inhibition of TNFalpha-induced NFkappaB (unknown origin) canonical pathway expressed in mouse NIH3T3-KBF-Luc cells assessed as IkappaB-alpha phosphorylation level at 0.1 uM pre-incubated for 15 mins before TNFalpha stimulation for 6 hrs by Western blot analysis relative to untreated control
[2] = species: Homo sapiens; assay: Inhibition of TNFalpha-induced NFkappaB (unknown origin) canonical pathway expressed in mouse NIH3T3-KBF-Luc cells assessed as IkappaB-alpha phosphorylation level at 1 uM pre-incubated for 15 mins before TNFalpha stimulation for 6 hrs by Western blot analysis relative to untreated control
[3] = species: Homo sapiens; assay: Inhibition of TNFalpha-induced NFkappaB (unknown origin) canonical pathway expressed in mouse NIH3T3-KBF-Luc cells assessed as IkappaB-alpha phosphorylation level at 5 uM pre-incubated for 15 mins before TNFalpha stimulation for 6 hrs by Western blot analysis relative to untreated control
[4] = species: Homo sapiens; assay: Inhibition of TNFalpha-induced NFkappaB (unknown origin) canonical pathway expressed in mouse NIH3T3-KBF-Luc cells assessed as IkappaB-alpha phosphorylation level at 10 uM pre-incubated for 15 mins before TNFalpha stimulation for 6 hrs by Western blot analysis relative to untreated control
[5] = species: Homo sapiens; assay: Inhibition of TNFalpha-induced NFkappaB (unknown origin) canonical pathway expressed in mouse NIH3T3-KBF-Luc cells assessed as IkappaB-alpha phosphorylation level at 25 uM pre-incubated for 15 mins before TNFalpha stimulation for 6 hrs by Western blot analysis relative to untreated control
[6] = species: Homo sapiens; assay: Inhibition of TNFalpha-induced NFkappaB (unknown origin) canonical pathway expressed in mouse NIH3T3-KBF-Luc cells assessed as IkappaB-alpha phosphorylation level at 50 uM pre-incubated for 15 mins before TNFalpha stimulation for 6 hrs by Western blot analysis relative to untreated control
[7] = molecular target: Transcription factor p65 (Homo sapiens) (UniProt Q04206); assay: Inhibition of TNFalpha-induced NFkappaB (unknown origin) canonical pathway expressed in mouse NIH3T3-KBF-Luc cells assessed as p65 phosphorylation level at 0.1 uM pre-incubated for 15 mins before TNFalpha stimulation for 6 hrs by Western blot analysis relative to untreated control
[8] = molecular target: Transcription factor p65 (Homo sapiens) (UniProt Q04206); assay: Inhibition of TNFalpha-induced NFkappaB (unknown origin) canonical pathway expressed in mouse NIH3T3-KBF-Luc cells assessed as p65 phosphorylation level at 5 uM pre-incubated for 15 mins before TNFalpha stimulation for 6 hrs by Western blot analysis relative to untreated control
[9] = molecular target: Transcription factor p65 (Homo sapiens) (UniProt Q04206); assay: Inhibition of TNFalpha-induced NFkappaB (unknown origin) canonical pathway expressed in mouse NIH3T3-KBF-Luc cells assessed as p65 phosphorylation level at 10 uM pre-incubated for 15 mins before TNFalpha stimulation for 6 hrs by Western blot analysis relative to untreated control
[10] = molecular target: Transcription factor p65 (Homo sapiens) (UniProt Q04206); assay: Inhibition of TNFalpha-induced NFkappaB (unknown origin) canonical pathway expressed in mouse NIH3T3-KBF-Luc cells assessed as p65 phosphorylation level at 25 uM pre-incubated for 15 mins before TNFalpha stimulation for 6 hrs by Western blot analysis relative to untreated control
[11] = molecular target: Transcription factor p65 (Homo sapiens) (UniProt Q04206); assay: Inhibition of TNFalpha-induced NFkappaB (unknown origin) canonical pathway expressed in mouse NIH3T3-KBF-Luc cells assessed as p65 phosphorylation level at 50 uM pre-incubated for 15 mins before TNFalpha stimulation for 6 hrs by Western blot analysis relative to untreated control
[12] = species: Homo sapiens; assay: Inhibition of NF-kappaB (unknown origin) expressed in HEK293T cells co-transfected with the NF-kappaB-Luc plasmid and IKKbeta-HA assessed as reduction in IKKbeta-induced NF-kappaB activation at 0.1 to 50 uM by luciferase reporter gene assay

CC1=CC(O/C=C2\C[C@]3(C)C(COc4ccc5ccc(=O)oc5c4)[C@](C)(O)CC[C@H]3C(C)(C)C2=O)OC1=O (some centres not stated) showed a fold change (FC) [1] of 4.8, a fold change (FC) [2] of 4.9 and a fold change (FC) [3] of 5.8. For the same molecule, the fold change (FC) [4] was 2.5, the fold change (FC) [5] was 0.4 and the fold change (FC) [6] was 0.9. For the same molecule, the fold change (FC) [7] was 3.2, the fold change (FC) [8] was 6 and the fold change (FC) [9] was 5.1. For the same molecule, the fold change (FC) [10] was 2.4, the fold change (FC) [11] was 1.1 and the fold change (FC) [12] was 1.
